Test results published in patent publication US20250289789A1, “REVERSIBLE LYSINE COVALENT MODIFIERS OF CDK2 AND USES THEREOF” (Terremoto Biosciences, Inc., priority 2023, published 2025).

Sequences of proteins named here, by UniProt entry; tags and fusion partners are left off.
UniProt P06493, whole entry: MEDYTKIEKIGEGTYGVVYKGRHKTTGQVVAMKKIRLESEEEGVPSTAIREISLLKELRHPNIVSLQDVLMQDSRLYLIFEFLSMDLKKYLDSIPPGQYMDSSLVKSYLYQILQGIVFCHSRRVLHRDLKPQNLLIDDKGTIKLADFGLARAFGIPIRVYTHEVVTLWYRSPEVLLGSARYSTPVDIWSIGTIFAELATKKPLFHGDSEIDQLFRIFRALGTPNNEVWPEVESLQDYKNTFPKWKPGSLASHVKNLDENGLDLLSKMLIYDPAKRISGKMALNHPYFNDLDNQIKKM
UniProt P11802, whole entry: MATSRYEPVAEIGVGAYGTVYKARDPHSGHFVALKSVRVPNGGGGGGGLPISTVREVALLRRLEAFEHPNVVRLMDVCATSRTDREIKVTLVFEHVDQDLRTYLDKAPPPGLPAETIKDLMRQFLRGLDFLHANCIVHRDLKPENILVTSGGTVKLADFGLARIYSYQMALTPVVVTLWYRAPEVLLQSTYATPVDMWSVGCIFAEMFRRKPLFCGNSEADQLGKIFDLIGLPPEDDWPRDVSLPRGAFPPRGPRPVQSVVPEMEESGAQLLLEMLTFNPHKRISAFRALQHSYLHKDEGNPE
UniProt P14635, whole entry partner: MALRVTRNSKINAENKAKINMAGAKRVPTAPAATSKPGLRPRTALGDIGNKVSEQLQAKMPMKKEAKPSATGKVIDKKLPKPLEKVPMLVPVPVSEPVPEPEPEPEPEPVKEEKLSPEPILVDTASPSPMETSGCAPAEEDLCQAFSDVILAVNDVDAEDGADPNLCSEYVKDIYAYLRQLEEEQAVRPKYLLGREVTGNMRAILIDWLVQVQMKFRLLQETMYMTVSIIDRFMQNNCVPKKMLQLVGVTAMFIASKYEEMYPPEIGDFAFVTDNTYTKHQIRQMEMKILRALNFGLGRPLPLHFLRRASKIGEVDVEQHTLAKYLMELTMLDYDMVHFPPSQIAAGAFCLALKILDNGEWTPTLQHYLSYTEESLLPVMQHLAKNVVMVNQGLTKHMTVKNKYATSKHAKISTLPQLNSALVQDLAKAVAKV
UniProt P24385, whole entry partner: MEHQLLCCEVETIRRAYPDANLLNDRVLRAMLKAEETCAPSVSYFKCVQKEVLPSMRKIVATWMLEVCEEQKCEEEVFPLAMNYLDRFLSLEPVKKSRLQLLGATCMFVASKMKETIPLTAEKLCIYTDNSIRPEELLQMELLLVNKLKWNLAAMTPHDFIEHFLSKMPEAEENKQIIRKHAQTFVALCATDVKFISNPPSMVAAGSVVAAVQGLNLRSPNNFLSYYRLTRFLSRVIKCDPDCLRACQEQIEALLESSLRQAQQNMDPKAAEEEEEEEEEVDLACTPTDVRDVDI

Columns and labels:
[1] = molecular target: CDK1-NanoLuc fusion with CCNB1 in 293T or 293 cells (Homo sapiens, UniProt P06493); experiment: NanoBRET Target Engagement (TE) Intracellular Kinase Assay, CDK1/CCNB1; settings: read-out: NanoBRET-CDK1/B1 IC50, 2-hour incubation
[2] = molecular target: CDK2-NanoLuc fusion with CCNE1 in 293T or 293 cells (Homo sapiens, UniProt P24941); experiment: NanoBRET Target Engagement (TE) Intracellular Kinase Assay, CDK2/CCNE1; settings: read-out: NanoBRET-CDK2/E1 IC50, 2-hour incubation
[3] = molecular target: CDK4-NanoLuc fusion with CCND1 in 293T or 293 cells (Homo sapiens, UniProt P11802); experiment: NanoBRET Target Engagement (TE) Intracellular Kinase Assay, CDK4/CCND1; settings: read-out: NanoBRET-CDK4/D1 IC50, 2-hour incubation
[4] = tested on: Phospho-Rb Ser807/811 in OVCAR3 cells; experiment: OVCAR3 Phospho-Rb Ser807/811 HTRF assay; settings: read-out: pRb-OVCAR3 IC50, 1 hour incubation

SMILES | IC50 [1] [nM] | IC50 [2] [nM] | IC50 [3] [nM] | IC50 [4] [nM]
CC(C)NC(=O)O[C@@H]1CC[C@H](c2cc(NC(=O)c3cc(-c4cccc(O)c4C=O)ns3)n[nH]2)C1 | 64.3 | 9.38 | 7090 | 1190
Cc1cc(O)c(C=O)c(CCC(=O)Nc2cc([C@H]3CC[C@@H](OC(=O)NC(C)C)C3)[nH]n2)c1 | 269 | 5.38 | > 10000 | 556
